Tested on: mu (Rattus norvegicus) & delta (Mus musculus) opioid receptors
Assay: Ratio of IC50 against mu opioid receptor to that of delta opioid receptor

Structure (SMILES): C=CCN(CC=C)[C@@H](Cc1ccc(O)cc1)C(=O)NC(C)C(=O)NC(C)C(=O)N[C@@H](Cc1ccc(NC(=O)CBr)cc1)C(=O)N[C@@H](CC(C)C)C(=O)O (stereo partly specified)
- Ratio: > 255

Source: ChEMBL document CHEMBL1133472, “Synthesis and evaluation of N,N-dialkyl enkephalin-based affinity labels for delta opioid receptors” (J Med Chem, 2000)
